Assay results reported in ChEMBL document CHEMBL3352818, “Seizure prevention by the naturally occurring phenols, carvacrol and thymol in a partial seizure-psychomotor model” (Bioorg Med Chem Lett, 2014).

Assay: Protective index, ratio of TD50 for CF1 albino mouse neurotoxicity to ED50 for protection against 6 Hz electroshock-induced seizure in CF1 albino mouse
Type: toxicity, organism-based
Details: in vivo, read-out: Ratio TD50/ED50

For `NC(=O)N1c2ccccc2C=Cc2ccccc21` [CARBAMAZEPINE], which selectivity ratio is on record?
Its selectivity ratio is 0.95.
